Data published in PubChem BioAssay AID493087 (The Scripps Research Institute Molecular Screening Center, 2011).
This is a selection; strong and weak results do not stand in their true shares. Activity calls are given as the source filed them.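 Rule for the calls: active = activation above the mean of all tested compounds plus 3 SD, set per screening campaign (cut at about 17% in these data); inactive = the rest.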

Sequences of proteins named here, by UniProt entry; tags and fusion partners are left off.
UniProt P14735, whole entry, looked up: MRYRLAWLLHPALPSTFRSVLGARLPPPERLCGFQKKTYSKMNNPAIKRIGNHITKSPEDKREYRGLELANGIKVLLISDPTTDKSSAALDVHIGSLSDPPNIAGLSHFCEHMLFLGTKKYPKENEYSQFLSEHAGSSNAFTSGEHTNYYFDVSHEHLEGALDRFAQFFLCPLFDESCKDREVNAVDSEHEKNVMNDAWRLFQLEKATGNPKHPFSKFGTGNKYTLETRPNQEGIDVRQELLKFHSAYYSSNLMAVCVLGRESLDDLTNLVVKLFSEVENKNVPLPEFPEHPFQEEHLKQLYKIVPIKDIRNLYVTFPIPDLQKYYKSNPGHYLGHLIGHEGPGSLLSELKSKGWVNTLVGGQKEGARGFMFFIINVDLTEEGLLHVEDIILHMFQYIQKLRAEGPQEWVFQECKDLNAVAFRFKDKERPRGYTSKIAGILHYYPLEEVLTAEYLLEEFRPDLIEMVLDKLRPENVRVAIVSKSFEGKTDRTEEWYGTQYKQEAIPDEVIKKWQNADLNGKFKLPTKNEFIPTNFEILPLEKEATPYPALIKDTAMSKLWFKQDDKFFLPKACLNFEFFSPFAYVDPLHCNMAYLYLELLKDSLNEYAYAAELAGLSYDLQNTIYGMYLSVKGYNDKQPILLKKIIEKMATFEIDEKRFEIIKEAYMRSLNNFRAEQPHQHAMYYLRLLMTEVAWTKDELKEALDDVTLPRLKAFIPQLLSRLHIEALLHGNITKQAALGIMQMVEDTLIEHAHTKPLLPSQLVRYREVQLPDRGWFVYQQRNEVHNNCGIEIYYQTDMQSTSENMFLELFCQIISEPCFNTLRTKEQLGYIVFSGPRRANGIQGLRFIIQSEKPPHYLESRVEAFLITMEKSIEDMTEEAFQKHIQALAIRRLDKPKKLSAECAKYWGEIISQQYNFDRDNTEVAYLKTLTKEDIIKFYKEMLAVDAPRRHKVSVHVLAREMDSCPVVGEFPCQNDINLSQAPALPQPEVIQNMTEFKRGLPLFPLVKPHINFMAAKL

These compounds were tested against Insulin-degrading enzyme (Homo sapiens) (UniProt P14735) (assay: human IDE activators in live cells, primary screen, fluorescence polarization, HEK cells, FAbeta-B substrate (AID 493087)). Conditions: FAbeta-B cleavage, at 5.96 µM, active compounds read high, 0% vehicle, 100% cell-free pure enzyme wells.

Compound | activation
NC(=O)Nc1ccc([As](=O)(O)O)cc1 | inactive: -1.23%
CN(C)C(=O)c1cc([N+](=O)[O-])cc2c1-c1c(cc([N+](=O)[O-])cc1[N+](=O)[O-])C2=O | inactive: 0.91%
O=[N+]([O-])c1ccc2c(c1)nnn2O | inactive: 5.72%
CN(C(=O)Cc1ccc(Cl)c(Cl)c1)[C@H]1CC[C@@]2(CCCO2)C[C@@H]1N1CCCC1 | inactive: 7.71%
N#CCCN(C(=O)COC(=O)C(O)(c1ccccc1)c1ccccc1)c1ccc(F)cc1 | inactive: -0.05%
CN(C(=O)Cc1ccccc1)[C@@H]1CC[C@]2(CCCO2)C[C@H]1N1CCCC1 | inactive: 3.06%
CCOP1(=S)c2c(C)nn(CCC#N)c2N=C(c2ccc(F)cc2)N1C (configuration not stated) | inactive: 4.45%
CS(=O)(=O)c1cc([N+](=O)[O-])c2no[n+]([O-])c2c1 | inactive: -8.57%
CCOP1(=S)c2c(C)nn(CCC#N)c2N=C(c2ccccc2F)N1C (configuration not stated) | inactive: -1.76%
O=P(Nc1nccs1)(c1ccccc1)c1nc2ccccc2s1 (configuration not stated) | inactive: -62.9%
O=P(Nc1nccs1)(Oc1ccccc1)Oc1ccccc1 | inactive: 1.76%
O=C(O)COc1ccc([As](=O)(O)O)cc1[N+](=O)[O-] | inactive: 4.53%
Nc1ccccc1[As](=O)(O)c1ccccc1 | inactive: 3.88%
CCCOP(=S)(Nc1nc(N)cc(=O)[nH]1)OCCC | inactive: 3.07%
Nc1cccc2c([As](=O)(O)O)cccc12 | inactive: -0.14%
Cc1ccc(NCCc2c([N+](=O)[O-])cc([N+](=O)[O-])cc2[N+](=O)[O-])cc1 | inactive: -0.17%
COc1cc(C2NCCC3(OCCO3)C2(C)C)cc(OC)c1OC (configuration not stated) | inactive: -1.99%
CCOP(=O)(Nc1cccc2ccccc12)OCC | inactive: 0.75%
COc1cc(C(=O)NCC2(N3CCOCC3)CCCCC2)cc(Cl)c1OC(C)C | inactive: 9.27%
O=[As](O)(O)c1cccnc1 | inactive: -1.79%
CS(=O)(=O)c1ccc(Cl)c(NC(=O)COC(=O)C(O)(c2ccccc2)c2ccccc2)c1 | inactive: 2.41%
O=C(OC1CN2CCC1CC2)c1ccc(Cl)cc1 (configuration not stated) | inactive: 5.37%
O=[As](O)(c1cccc(O)c1)c1cccc(O)c1 | inactive: 2.74%
Cc1cccc(OCC(=O)OC2CN3CCC2CC3)c1 (configuration not stated) | inactive: 4.99%
COc1ccccc1CNC(=O)COC(=O)C(O)(c1ccccc1)c1ccccc1 | inactive: -2.1%
CC1(CBr)Cn2c(nc3ccccc3c2=O)S1 (configuration not stated) | inactive: 6.76%

Compound | activation
CN(C(=O)Cc1ccc(Cl)c(Cl)c1)[C@@H]1CCCC[C@H]1N1CCCC1 | inactive: -0.73%
CC(C)/C=N\N=C(\N)N[N+](=O)[O-] | inactive: -0.41%
CCOP(=O)(Nc1ccc(C)cn1)OCC | inactive: -1.63%
CCC1=CC2Cc3nc4ccc(Cl)cc4c(N)c3C(C1)C2 (configuration not stated) | inactive: 2.82%
O=P1(Nc2ccccn2)COc2ccccc2OC1 | inactive: 7.26%
CCOP(=O)(NC(=NC(C)c1ccccc1)NC(C)c1ccccc1)OCC (configuration not stated) | inactive: 1.85%
Clc1n[nH]nc1-c1nn[nH][15n]1 | inactive: 5.87%
CC(C)(C)C(=O)NC(Sc1ncccn1)C(Cl)(Cl)Cl (configuration not stated) | inactive: -2.86%
O=P1(Nc2ncccn2)COc2ccccc2OC1 | inactive: 2.23%
NS(=O)(=O)c1cccc(NC(=O)COC(=O)C(O)(c2ccccc2)c2ccccc2)c1 | inactive: 2.57%
O=P1(Nc2ccc(Br)cn2)COc2ccccc2OC1 | inactive: 5.87%
O=[As](O)(c1cccs1)c1cccs1 | inactive: 2.35%
Cc1ccc(OCC(=O)OC2CN3CCC2CC3)cc1 (configuration not stated) | inactive: 2.06%
Nc1cccc([As](=O)(O)c2ccccc2)c1 | inactive: 4.28%
Cc1nn(-c2ccccc2)c2c1P(=O)(N1CCOCC1)N(C)C(c1ccccc1)=N2 (configuration not stated) | inactive: 3.58%
Cc1ccc(C(=O)OC2CN3CCC2CC3)cc1 (configuration not stated) | inactive: 3.56%
CC1CCC(C(C)C)C(OP(=O)(Nc2ccccn2)c2ccccc2)C1 (configuration not stated) | inactive: -2.8%
O=C(/C=C/c1ccccc1)OC1CN2CCC1CC2 (configuration not stated) | inactive: 6.14%
CCCC1OP(=O)(Nc2ccccc2)OCC1CC (configuration not stated) | inactive: 3.51%
CN(C)C1(CNC(=O)c2ccc(S(C)(=O)=O)cc2)CCCCC1 | inactive: 4.97%
CCOC(=O)Nc1cccc([As](=O)(O)O)c1 | inactive: 4.15%
O=[N+]([O-])c1ccc(Nc2ccc(Oc3ccc([N+](=O)[O-])cc3[N+](=O)[O-])cc2)c([N+](=O)[O-])c1 | inactive: 1.27%
Cc1cc(SC(NC=O)C(Cl)(Cl)Cl)ncn1 (configuration not stated) | inactive: -3.83%
O=P(Nc1ccccn1)(c1cccc2ccccc12)c1cccc2ccccc12 | inactive: 4.2%
CC1CCNP(=O)(N(CCCl)CCCl)O1 (configuration not stated) | inactive: 1.72%
CCOC(=O)Nc1ccc([As](=O)(O)O)c(O)c1 | inactive: 1.72%

Compound | activation
CCCCOc1ccc(C(=O)NCC2(N3CCCCC3)CCCCC2)cc1OC | inactive: -1.05%
Cc1cc(SC(NC(=O)c2ccccc2)C(Cl)(Cl)Cl)nc(C(C)C)n1 (configuration not stated) | inactive: -7.46%
CCOC(=O)c1ccc(NC(=O)C(C)(CCl)SC)cc1 (configuration not stated) | inactive: -3.07%
O=C(OC1CN2CCC1CC2)c1cccc([N+](=O)[O-])c1 (configuration not stated) | inactive: 1.93%
CCC(C)N(CC(C)C)C(=S)SC(NC(C)=O)C(Cl)(Cl)Cl (configuration not stated) | inactive: 0.04%
COP1(=S)c2c(C)nn(CCC#N)c2N=C(c2ccc(F)cc2)N1C (configuration not stated) | inactive: -1.68%
O=C(COc1ccccc1)OC1CN2CCC1CC2 (configuration not stated) | inactive: -0.22%
O=C(Nc1ccncc1[N+](=O)[O-])c1ccc([N+](=O)[O-])cc1[N+](=O)[O-] | inactive: 5.57%
COc1ccc(N/C(=N/P(=O)(N2CCOCC2)N2CCOCC2)N2CCOCC2)cc1 | inactive: -0.61%
O=[N+]([O-])c1cc(Oc2ccc([N+](=O)[O-])cc2C(F)(F)F)cc([N+](=O)[O-])c1 | inactive: -1.28%
O=C(OC1CN2CCC1CC2)C12CC3CC(CC(C3)C1)C2 (configuration not stated) | inactive: 4.13%
Cc1cc(=O)[nH]c(N[N+](=O)[O-])n1 | inactive: 2.62%
Cc1c2c(nc3ccccc13)SC(C(Cl)Cl)C2 (configuration not stated) | inactive: -0.29%
COc1ccc2nc(NP(=O)(c3ccccc3)c3ccccc3)sc2c1 | inactive: 5.91%
COc1cc(I)ccc1[As](=O)(O)O | inactive: -0.59%
O=P1(N(CCCl)CCCl)Nc2ccccc2N1 | inactive: 2.93%
O=P1(N(CCCl)CCCl)OCCCN1CCCl (configuration not stated) | inactive: 0.53%
CC(C)c1ccc(OP(=O)(Nc2ccccn2)Oc2ccccc2F)cc1 (configuration not stated) | inactive: 1.04%
COC(=O)C1(C)COP(=O)(N2CCCCCC2)OC1 (configuration not stated) | inactive: 0.67%
ClCCSc1nnc(-c2cccnc2)o1 | inactive: 0.88%
O=C(OC1CN2CCC1CC2)c1cccc2[nH]cnc12 (configuration not stated) | inactive: 3.72%
CCN(CC)C(=S)SC(NC=O)C(Cl)(Cl)Cl (configuration not stated) | inactive: 0.3%
O=[N+]([O-])c1cc([N+](=O)[O-])c(-c2ccn[nH]2)s1 | inactive: 2.15%
C[As](=O)(O)c1cccc(C(=O)O)c1 | inactive: 6.01%
O=[As](O)(c1ccc(O)cc1)c1ccccc1O | inactive: 8%
COc1cc(C(=O)NCC2(N3CCOCC3)CCCCC2)ccc1OCC(C)C | inactive: 3.72%

Compound | activation
O=[N+]([O-])c1ccc(-c2cc([N+](=O)[O-])c(O)c([N+](=O)[O-])c2)cc1 | inactive: 7.55%
Cc1ccc2nc3c(c(C)c2c1)CC(C(Cl)Cl)S3 (configuration not stated) | inactive: -4.49%
Cc1ccc(OP(=O)(Nc2ccc([N+](=O)[O-])cn2)Oc2ccc(C)cc2)cc1 | inactive: 3.01%
CCN(N=Nc1nonc1N)c1nonc1N | inactive: 1.6%
Nc1cccc2ccc([As](=O)(O)O)cc12 | inactive: -3.13%
O=C(O)c1ccccc1[As](=O)(O)O | inactive: 1.31%
CC(=O)Nc1ccc([As](=O)(O)O)cc1 | inactive: -0.93%
CCCC1OP(N)(=O)OCC1CC (configuration not stated) | inactive: -3.92%
O=P(Nc1nc2ccc(Cl)cc2s1)(c1ccccc1)c1ccccc1 | inactive: 2.25%
CCOP(=O)(Nc1ccccc1)OCC | inactive: -6.49%
Cc1cc(SC(NC(=O)c2ccc(F)cc2)C(Cl)(Cl)Cl)ncn1 (configuration not stated) | inactive: -13.6%
CN(C(=O)Cc1ccc(Cl)c(Cl)c1)[C@H]1CCCC[C@@H]1N1CCCC1 | inactive: -0.41%
Cc1ccc(NP(=O)(Oc2ccccc2F)Oc2ccccc2F)nc1 | inactive: 3.94%
CC(C)CC(=O)NC(Sc1ccc(Cl)cc1)C(Cl)(Cl)Cl (configuration not stated) | inactive: -1.83%
Nc1cc(N)c2nonc2c1[N+](=O)[O-] | inactive: 2.98%
Oc1ccccc1CNc1ccccn1 | inactive: 7.5%
O=C(NC(Sc1ccncn1)C(Cl)(Cl)Cl)c1ccccc1 (configuration not stated) | inactive: -1.62%
NC(=O)c1cc([N+](=O)[O-])cc([N+](=O)[O-])c1N | inactive: -3.97%
CN(C(=O)Cc1ccc(Cl)c(Cl)c1)[C@H]1CCCC[C@H]1N1CCCC1 | inactive: 5.98%
Cc1ccc(N/C(=N/P(=O)(N2CCOCC2)N2CCOCC2)N2CCOCC2)cc1 | inactive: -2.25%
COc1ccccc1OP(=O)(Nc1ccc(C)cn1)Oc1ccccc1OC | inactive: 6.44%
Clc1ccc(Cl)c(NC2=NCC(CBr)S2)c1 (configuration not stated) | inactive: 6.56%
CN1CCCC(OC(=O)C(c2ccccc2)c2ccccc2)C1 (configuration not stated) | inactive: -1.72%
Nc1ccc([As](=O)(O)c2ccc(N)cc2)cc1 | inactive: 5.79%
